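Briefly, cells in 96-well plates were exposed to five compound concentrations for 48 h, and endpoints were estimated by linear interpolation. GI50 is the concentration that inhibits growth by half. At the TGI there is no net growth.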
What was measured:
Assay in all cases: DTP human tumour cell line panel, 48 h
HCT-15 colon = system: HCT-15 colon
T-47D breast = system: T-47D breast
SF-295 CNS = system: SF-295 CNS
MDA-MB-231 breast = system: MDA-MB-231 breast
EKVX NSCLC = system: EKVX NSCLC
IGROV1 ovarian = system: IGROV1 ovarian
UO-31 renal = system: UO-31 renal
M14 melanoma = system: M14 melanoma
ACHN renal = system: ACHN renal
CCRF-CEM leukemia = system: CCRF-CEM leukemia
SK-OV-3 ovarian = system: SK-OV-3 ovarian
HT29 colon = system: HT29 colon
MCF7 breast = system: MCF7 breast
K-562 leukemia = system: K-562 leukemia
MDA-N = system: MDA-N
OVCAR-4 ovarian = system: OVCAR-4 ovarian
NCI-H322M lung = system: NCI-H322M lung
HCT-116 colon = system: HCT-116 colon
HOP-92 NSCLC = system: HOP-92 NSCLC
HOP-62 NSCLC = system: HOP-62 NSCLC
SN12C renal = system: SN12C renal
NCI-H522 lung = system: NCI-H522 lung
SNB-19 CNS = system: SNB-19 CNS
SR leukemia = system: SR leukemia
SF-268 CNS = system: SF-268 CNS
HS 578T breast = system: HS 578T breast
NCI-H460 lung = system: NCI-H460 lung
RPMI-8226 leukemia = system: RPMI-8226 leukemia
NCI-H226 lung = system: NCI-H226 lung
RXF 393 renal = system: RXF 393 renal

In the case of O=[N+]([O-])c1cc([N+](=O)[O-])c(-c2nc(Cl)c3c([N+](=O)[O-])cc([N+](=O)[O-])cc3[n+]2[O-])c([N+](=O)[O-])c1, the GI50 (HCT-15 colon) is reported as 10.7 µM, the TGI (HCT-15 colon) is reported as 18.6 µM and the GI50 (T-47D breast) is reported as 14.7 µM. The TGI (T-47D breast) was 23.6 µM, the GI50 (SF-295 CNS) was 7.78 µM and the TGI (SF-295 CNS) was 19.6 µM. For the same molecule, the GI50 (MDA-MB-231 breast) was 1.91 µM, the TGI (MDA-MB-231 breast) was 3.58 µM and the GI50 (EKVX NSCLC) was 4.66 µM. The TGI (EKVX NSCLC) was 9.07 µM, the GI50 (IGROV1 ovarian) was 2.5 µM and the TGI (IGROV1 ovarian) was 5.43 µM. It also gave a GI50 (UO-31 renal) of 2.11 µM, a TGI (UO-31 renal) of 4.55 µM and a GI50 (M14 melanoma) of 1.95 µM. The TGI (M14 melanoma) was 3.63 µM, the GI50 (ACHN renal) was 1.67 µM and the TGI (ACHN renal) was 3.04 µM. The GI50 (CCRF-CEM leukemia) was 0.497 µM, the TGI (CCRF-CEM leukemia) was 1.28 µM and the GI50 (SK-OV-3 ovarian) was over 100 µM. It also gave a TGI (SK-OV-3 ovarian) of over 100 µM, a GI50 (HT29 colon) of 1.99 µM and a TGI (HT29 colon) of 3.95 µM. The GI50 (MCF7 breast) was 1.04 µM, the TGI (MCF7 breast) was 3.58 µM and the GI50 (K-562 leukemia) was 0.682 µM. It also gave a TGI (K-562 leukemia) of 1.78 µM, a GI50 (MDA-N) of 1.95 µM and a TGI (MDA-N) of 3.48 µM. The GI50 (OVCAR-4 ovarian) was 1.9 µM, the TGI (OVCAR-4 ovarian) was 3.36 µM and the GI50 (NCI-H322M lung) was 6.87 µM. It also gave a TGI (NCI-H322M lung) of 19.5 µM, a GI50 (HCT-116 colon) of 1.74 µM and a TGI (HCT-116 colon) of 3.21 µM. The GI50 (HOP-92 NSCLC) was 1.78 µM, the TGI (HOP-92 NSCLC) was 3.22 µM and the GI50 (HOP-62 NSCLC) was 7.45 µM. For the same molecule, the TGI (HOP-62 NSCLC) was 15.7 µM, the GI50 (SN12C renal) was 2.44 µM and the TGI (SN12C renal) was 5.85 µM. It also gave a GI50 (NCI-H522 lung) of 1.88 µM, a TGI (NCI-H522 lung) of 3.78 µM and a GI50 (SNB-19 CNS) of 4.36 µM. The TGI (SNB-19 CNS) was 8.8 µM, the GI50 (SR leukemia) was 0.361 µM and the TGI (SR leukemia) was over 100 µM. For the same molecule, the GI50 (SF-268 CNS) was 1.6 µM, the TGI (SF-268 CNS) was 3.2 µM and the GI50 (HS 578T breast) was 3.6 µM. It also gave a TGI (HS 578T breast) of 17.5 µM, a GI50 (NCI-H460 lung) of 5.96 µM and a TGI (NCI-H460 lung) of 12.8 µM. The GI50 (RPMI-8226 leukemia) was 0.528 µM, the TGI (RPMI-8226 leukemia) was 16.6 µM and the GI50 (NCI-H226 lung) was 13 µM. The TGI (NCI-H226 lung) was 39.2 µM, the GI50 (RXF 393 renal) was 1.74 µM and the TGI (RXF 393 renal) was 3.7 µM.
